Source: patent US5403850A, “Derivatives of P-substituted phenyl ester of pivalic acid” (Ono Pharmaceutical Co., Ltd., priority 1988, dated 1995)

Biological target: T1, elastase from human neutrophil (Homo sapiens, UniProt P08246)
T1 construct: elastase from human neutrophil; from tissue; host or cells: human neutrophil
T1 sequence (P08246 30-247 limits assumed): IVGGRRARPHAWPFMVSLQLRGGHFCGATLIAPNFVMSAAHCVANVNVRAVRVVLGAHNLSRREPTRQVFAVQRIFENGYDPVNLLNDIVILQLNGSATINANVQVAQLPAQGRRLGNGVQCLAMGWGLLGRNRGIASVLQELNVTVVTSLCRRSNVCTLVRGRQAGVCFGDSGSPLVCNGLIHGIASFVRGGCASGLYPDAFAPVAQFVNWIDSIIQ
Assay: Inhibitory effect on elastase (spectrophotometric, Suc-Ala-Pro-Ala-pNA substrate)
Type: biochemical
Settings: 1 mM Suc-Ala-Pro-Ala-pNA, tris-hydrochloric acid pH 8.0, 37° C. for 30 minutes, absorbance 405 nm
Procedure: The reaction mixture consisted of 1 mM Suc-Ala-Pro-Ala-pNA (dissolving in N-methylpyrrolidone to the concentration of 100 mM, and then adding 1/100 amount of the solution to the reaction mixture.), 0.1 M buffer solution of tris-hydrochloric acid (pH 8.0), 0.2 M sodium chloride aqueous solution, the sample solution of various concentrations and enzyme solution in a final volume of 1.0 ml was incubated at 37° C. for 30 minutes.
Inhibition percentage of the test compounds was calculated by the following equation: [formula]

With CC(C)(C)C(=O)Oc1ccc(S(=O)(=O)Nc2ccccc2C(=O)NCC(=O)O)cc1 [2(63), N-[o-(p-pivaloyloxybenzene)sulfonylaminobenzoyl]glycine] as the compound, how does the IC50 read?
Its IC50 is 44 nM.
